## CycPeptMPDB entries from one study

Source: CycPeptMPDB (Li et al. 2023), which took these values from Marelli et al. 2015, doi:10.1002/chem.201501270.

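Conditions beyond the assay type are not listed; see the original paper. The list need not hold all peptides of the study. Peptides that the database sets to -10, its floor, are left out.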

PAMPA measures passive passage through an artificial lipid membrane.
Caco-2: transport across a human colon carcinoma cell monolayer.
Values are log10 P with P in cm/s, so -5 is more permeable than -7.
"n/a" marks a cell with nothing listed here.

structure (SMILES),PAMPA (log10 cm/s),Caco-2 (log10 cm/s)
C[C@H](O)[C@H]1NC(=O)[C@@H](CCCCN)N(C)C(=O)[C@H](Cc2c[nH]c3ccccc23)N(C)C(=O)[C@@H](Cc2ccccc2)NC(=O)[C@H]2CCCN2C(=O)[C@@H](Cc2ccccc2)N(C)C1=O,n/a,-6.14
C[C@@H]1NC(=O)[C@H](C)N(C)C(=O)[C@H](C)N(C)C(=O)[C@H](C)NC(=O)[C@H](C)N(C)C(=O)[C@@H](C)N(C)C1=O,-7.00,-6.10
C[C@@H]1C(=O)N[C@H](C)C(=O)N(C)[C@@H](C)C(=O)N[C@H](C)C(=O)N[C@H](C)C(=O)N[C@H](C)C(=O)N1C,-8.30,-5.44
C[C@@H](O)[C@@H]1NC(=O)[C@H](CCCCN)N(C)C(=O)[C@@H](Cc2c[nH]c3ccccc23)N(C)C(=O)[C@H](Cc2ccccc2)NC(=O)[C@@H]2CCCN2C(=O)[C@H](Cc2ccccc2)N(C)C1=O,n/a,-5.82
C[C@@H]1C(=O)N(C)[C@@H](C)C(=O)N[C@H](C)C(=O)N[C@H](C)C(=O)N[C@H](C)C(=O)N[C@H](C)C(=O)N1C,-8.20,-5.62
C[C@@H]1NC(=O)[C@H](C)NC(=O)[C@@H](C)N(C)C(=O)[C@H](C)N(C)C(=O)[C@H](C)NC(=O)[C@H](C)NC1=O,-8.30,-6.82
C[C@@H]1C(=O)N[C@H](C)C(=O)N(C)[C@@H](C)C(=O)N(C)[C@H](C)C(=O)N[C@H](C)C(=O)N(C)[C@H](C)C(=O)N1C,-7.10,-5.57
C[C@@H]1NC(=O)[C@H](C)NC(=O)[C@@H](C)N(C)C(=O)[C@H](C)NC(=O)[C@H](C)N(C)C(=O)[C@H](C)NC1=O,-8.20,-6.76